Experimental data from patent US8299031B2, “Human semen enhancer of viral infection peptides (SEVI) and their use” (Viro Pharmaceuticals GmbH & Co. KG, priority 2006, dated 2012).

Experiment: Fibril formation of PAP(248-286) solutions (turbidity, electron microscopy)
Type: physicochemical
Conditions: 5 mg/ml in phosphate buffered saline, shaking 1000 rpm, overnight 37 degrees Celsius

GIHKQKEKSRLQGGVLVNEILNHMKRATQIPSYKKLIMY (Synthetic fragment of the PAP protein) [PAP(248-286)]
appearance of peptide solution after agitation: became turbid and fibril-like structures were visible
